Data on three compounds can be found in patent US9493486B2, “Diazaspirocycloalkane and azaspirocycloalkane” (Hoffmann-La Roche Inc., priority 2012, dated 2016).

For the assay, the target named is ATX (human His-tagged) (Homo sapiens (Human), UniProt Q13822). Nature of the assay: Human ATX enzyme inhibition assay (fluorescence quenching, MR121 substrate). Format: biochemical. Particulars: 30 nM ATX, 1 μM MR121 substrate, 30° C. The source says: Human ATX Enzyme Inhibition Assay
Assay working solutions were made as follows:

In general, IC50 refers to the concentration at which inhibition is half-maximal. Read a low IC50 as greater potency in that assay. `O=C(OCc1ccsc1)N1CCC2(CC1)CN(C(=O)c1ccc3[nH]nnc3c1)C2` [Example 12.13, thiophen-3-ylmethyl 2-(1H-benzo[d][1,2,3]triazole-5-carbonyl)-2,7-diazaspiro[3.5]nonane-7-carboxylate]: it took 3520 nM to reach half-maximal inhibition (IC50).

Take `O=C(OCc1ccc(OC(F)(F)F)cc1F)N1CCC2(CC1)CN(C(=O)[C@H]1CCc3[nH]nnc3C1)C2` (single isomer, unassigned) [Example 15A, (−)-2-Fluoro-4-(trifluoromethoxy)benzyl 2-(4,5,6,7-tetrahydro-1H-benzo[d][1,2,3]triazole-5-carbonyl)-2,7-diazaspiro[3.5]nonane-7-carboxylate]: the IC50 came out at 16 nM.

For the compound `O=C(OCc1c(Cl)cc(Cl)cc1Cl)N1CCC2(CC1)CN(C(=O)c1ccc3[nH]nnc3c1)C2` [Example 12.17, 2,4,6-trichlorobenzyl 2-(1H-benzo[d][1,2,3]triazole-5-carbonyl)-2,7-diazaspiro[3.5]nonane-7-carboxylate], the midpoint of inhibition, the IC50, lay at 20.3 nM.
